Data from patent US11584712B2, “Alkylamine-substituted perthiocarbamates as dual precursors to hydropersulfide and carbonyl sulfide” (The Johns Hopkins University, priority 2020, dated 2023).

System: H9c2 cells
Assay: H9c2 cell protection from H2O2-mediated oxidative stress, Cell Counting Kit-8 (CCK-8)
Assay type: cell-based, rat
Conditions: 2 h pretreatment (7b 50, 100, 150 μM; byproduct 150 μM), then H2O2 200 μM 2 h

## CN1CCN(C)C1=O [byproduct 2a, 1,3-dimethyl-2-imidazolidinone]
  protection against H2O2-mediated toxicity (CCK-8 viability): no protective effect
